# scFv variants of Ab-14 (heavy chain) against a SARS-CoV-2 spike peptide

Target peptide (SARS-CoV-2 spike, HR2 region): PDVDLGDISGINAS

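Phage display of a naive human antibody library on the peptide gave the parent. This is the validation round: designs drawn from the data on random variants, tested in the same kind of assay. Their group label is 14H_Rand (Rand: our label for a block that the file lists under HC and that is probably the random mutants of the ten best first-round binders). AlphaSeq pools MATa yeast showing the antibodies with MATalpha yeast showing the peptide. Mating (16 h, 30 °C) was followed by selection of diploids and sequencing of their barcodes. The ratio of observed to expected reads was calibrated, replicate by replicate, on BCL2-family standards whose Kd was known from biolayer interferometry. There are six technical replicates.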

Parent: Ab-14, a human scFv built as VH, the linker GGGGSGGGGSGGGGS, VL. Only the CDRs of the heavy chain vary.
VH: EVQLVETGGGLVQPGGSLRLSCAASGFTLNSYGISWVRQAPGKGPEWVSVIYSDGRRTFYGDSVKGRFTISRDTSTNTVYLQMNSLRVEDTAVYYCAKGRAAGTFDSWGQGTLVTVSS
VL: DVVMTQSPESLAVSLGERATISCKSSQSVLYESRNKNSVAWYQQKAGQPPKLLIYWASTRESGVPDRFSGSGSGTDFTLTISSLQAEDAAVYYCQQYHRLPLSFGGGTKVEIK

Variants are written as CDR1, CDR2 and CDR3 of the heavy chain (limits as in the source). Parent: GFTLNSYGIS, VIYSDGRRTFYGDSVK, GRAAGTFDS.
The read-out is the apparent dissociation constant on a log10 scale (nM): the lower, the stronger.
"n.d." marks a missing value. The strain was present, yet no cells mated with the target were sequenced in that replicate, which points to weak or no binding.
Of ten entries with the parent sequence, four were seen in most replicates (averages 0.34 to 2.37), three in one and three in none, so single entries are noisy.

CDR-H1	CDR-H2	CDR-H3	log10 Kd, replicates	empty controls
GFTLNSYGIS	VIYADGRRTFYGDSNK	GRQFGTNKS	n.d. / n.d. / n.d. / n.d. / n.d. / n.d.	0/18
GFTLNDYGIS	VKYSDGLRTQYIDSQK	GRAAGTFDS	n.d. / n.d. / n.d. / n.d. / n.d. / n.d.	0/18
GFTLNKYGIS	VIYSDGRRTFYSDSVK	GRAGGTFDS	1.65 / n.d. / n.d. / 1.23 / n.d. / 1.71	0/18
GFTLNDYPIS	VIYSDGRRTQYIDSVK	GRTAGTFDS	n.d. / n.d. / n.d. / n.d. / 2.13 / n.d.	0/18
GFTLHSYGIS	VIYSDGRRTDYNDSVK	ERAAGKALS	n.d. / n.d. / n.d. / n.d. / n.d. / n.d.	0/18
GFTLNSYGIS	VIYSDGRRTFYSDSEK	GRAGGTFDS	n.d. / n.d. / n.d. / n.d. / n.d. / n.d.	0/18
GFTLNSYGIS	VIYSDGRRTFYDMSVK	GQLAGTFGS	n.d. / n.d. / n.d. / n.d. / n.d. / n.d.	0/18
GFCLNSYGIS	VIYADGRRTFYGDSVK	GRAAGTMKS	n.d. / n.d. / n.d. / n.d. / n.d. / n.d.	0/18
GFTCNQYLDS	VIYSDGRRTFYSDSVK	GRAAGFFDS	n.d. / n.d. / n.d. / n.d. / n.d. / n.d.	0/18
GFTLDSYHIS	VIYSDGRRTFYGDSVK	GRAAGTALP	n.d. / n.d. / n.d. / n.d. / n.d. / n.d.	1/18 (1.96)
GFTLNEYGIS	VVYSDGRRTFWTDSVK	GRIAGTEDS	n.d. / n.d. / n.d. / n.d. / n.d. / n.d.	0/18
GFTSDSYGIS	VIYSDGRRTFYGDSVK	GRAAGTALS	n.d. / n.d. / n.d. / n.d. / n.d. / n.d.	0/18
GFTLNQYGIS	VTYSDGRRTFYSDSVK	GRAAGFFDS	n.d. / n.d. / n.d. / n.d. / n.d. / n.d.	0/18
GFTLNSYGIS	VIYSDGRREFYDDSVK	GQLAGTFDS	1.15 / 2.09 / 1.23 / 1.25 / 0.53 / 1.62	0/18
GFTLNMYGIS	VIYSDGRRTDYSDSVK	GRAFGTFDS	n.d. / 1.93 / n.d. / n.d. / 2.13 / n.d.	0/18
GRTQNSYGIS	VIYSDGRRTFYSDSVK	GRAGGTFDS	n.d. / n.d. / n.d. / n.d. / n.d. / n.d.	0/18
GFTLNQYGIS	VIYSDGRRNFYSDSVK	GRAAGFFDS	n.d. / n.d. / n.d. / n.d. / n.d. / n.d.	0/18
GFTLNDYGIS	VIYSDGRRTQYIDSVK	GRALGTFDS	n.d. / n.d. / n.d. / n.d. / n.d. / n.d.	0/18
GFTGNHYGIS	VIRSDGRRTQYIDHVK	GRAAGTFDS	n.d. / n.d. / n.d. / n.d. / n.d. / n.d.	0/18
GFTLNRYGIS	VIYSDGRRTFYCDSVK	GQLAGFFDS	n.d. / 1.72 / 0.71 / n.d. / n.d. / 0.74	0/18
GFTLNSYGIS	VIYADGRRTFHHDSVK	GRAAGTNKS	n.d. / n.d. / n.d. / n.d. / n.d. / n.d.	0/18
GFTKNEYGIS	VIYSDGRRTFYGDSVK	GRAAVTFDQ	n.d. / n.d. / n.d. / n.d. / n.d. / n.d.	0/18
GFTLNSYGIS	VKYSDGRRTFYSDSVK	GRAGGTFDS	0.65 / 0.50 / 0.13 / -0.12 / -0.06 / 0.23	0/18
GDWLNSYGIS	VIYSDGRRTFYDDSVK	GQLGGTFDR	n.d. / n.d. / n.d. / n.d. / n.d. / n.d.	0/18
GHTLNSYGIS	VIYADGRRTFYGAEVK	SRAAGTNKS	n.d. / n.d. / n.d. / n.d. / n.d. / n.d.	0/18
KFTLNDYGIS	VINSDGRRTFYGDSVK	GRAALTSIS	n.d. / n.d. / n.d. / n.d. / n.d. / n.d.	0/18
GFTLNDYGIS	VIYSDGRRTQTIKSVK	GRAAGTFDS	n.d. / 1.73 / n.d. / n.d. / n.d. / n.d.	0/18
GFTLNEYGIS	VIYSAGRRFFYGDSVK	GRAAVTFDQ	n.d. / n.d. / n.d. / n.d. / n.d. / n.d.	0/18
GFTLNDYGIS	VIYSDGRRTFHGDSVK	GRAALTFIS	n.d. / n.d. / n.d. / n.d. / n.d. / n.d.	0/18
GFTMNDYGIN	VIYSDGRRTQYIDSVK	GRAAGTFDS	n.d. / n.d. / 2.46 / n.d. / n.d. / n.d.	0/18
GFTLNSGGES	VIYSDGRRTFYSDSVK	GRAGGTFDS	n.d. / n.d. / n.d. / n.d. / n.d. / n.d.	0/18
GFTLNDYGIS	VMYSDGRRTQYIDSVK	VRAAGTFDS	n.d. / n.d. / n.d. / n.d. / n.d. / n.d.	0/18
GFTLNDYGIR	VIYSDGRRTQYIDSVK	GRAAGTFDS	1.43 / n.d. / n.d. / 1.17 / n.d. / 1.60	0/18
GFTLNVYGIS	VIYSDGRRTFYGDSVK	GRAAVTFDQ	n.d. / n.d. / n.d. / n.d. / n.d. / n.d.	0/18

Top 2 of the variants detected in all replicates, tightest first:

CDR-H1	CDR-H2	CDR-H3	log10 Kd, replicates	empty controls
GFTLNSYGIS	VKYSDGRRTFYSDSVK	GRAGGTFDS	0.65 / 0.50 / 0.13 / -0.12 / -0.06 / 0.23	0/18
GFTLNSYGIS	VIYSDGRREFYDDSVK	GQLAGTFDS	1.15 / 2.09 / 1.23 / 1.25 / 0.53 / 1.62	0/18

The authors averaged sequences with at least three values out of six and counted those with two or fewer as poor binders.
Three control strains display no target. For all heavy chain designs, 1% of the pairings with them gave a signal, with a median of 2.08 and one signal in twenty below 0.84, so weak values seen in few replicates may be background. Also given: how often the same scFv was detected with the empty control strains, with their mean in brackets.
A sequence measured in both rounds can read differently, since the two assays cover different ranges.

Reference: Li et al. 2023, doi:10.1038/s41467-023-39022-2. File: FLAb, binding data.